Molecular target: Broad substrate specificity ATP-binding cassette transporter ABCG2 (Homo sapiens, UniProt Q9UNQ0)
Assay: TP_TRANSPORTER: efflux of Hoechst33342 in BCRP-expressing Sf9 cells
Format: functional

Chains of the proteins cited; added tags and fusions are not shown. Lines headed by an entry give the natural chain unless they say otherwise; changes in a name come on top.
UniProt Q9UNQ0: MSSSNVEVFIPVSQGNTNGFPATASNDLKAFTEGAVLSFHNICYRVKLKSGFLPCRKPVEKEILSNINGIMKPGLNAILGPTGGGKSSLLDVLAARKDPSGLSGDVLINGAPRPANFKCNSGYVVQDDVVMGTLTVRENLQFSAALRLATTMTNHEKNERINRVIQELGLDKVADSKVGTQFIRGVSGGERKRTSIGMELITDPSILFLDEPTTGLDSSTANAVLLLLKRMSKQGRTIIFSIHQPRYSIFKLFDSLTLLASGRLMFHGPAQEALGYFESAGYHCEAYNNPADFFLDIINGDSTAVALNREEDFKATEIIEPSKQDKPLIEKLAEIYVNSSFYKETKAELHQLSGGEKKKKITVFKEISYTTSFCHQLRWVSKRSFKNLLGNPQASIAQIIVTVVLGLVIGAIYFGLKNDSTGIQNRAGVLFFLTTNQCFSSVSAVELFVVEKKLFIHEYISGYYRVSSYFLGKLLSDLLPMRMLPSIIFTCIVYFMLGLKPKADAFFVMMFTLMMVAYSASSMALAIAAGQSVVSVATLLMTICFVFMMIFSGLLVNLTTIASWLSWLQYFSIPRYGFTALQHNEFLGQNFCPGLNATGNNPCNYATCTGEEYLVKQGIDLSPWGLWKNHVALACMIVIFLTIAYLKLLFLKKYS

Q: Which IC50 does the source give for COc1cc2ncnc(Nc3ccc(F)c(Cl)c3)c2cc1OCCCN1CCOCC1 [GEFITINIB] here?
A: 400 nM

— ChEMBL document CHEMBL2074416, “High-affinity interaction of tyrosine kinase inhibitors with the ABCG2 multidrug transporter” (Mol Pharmacol, 2004)
